For this assay, the target named is UBE2L3-Ub conjugate (human | , UniProt P68036 1-154; P0CG48 1-76, ubiquitin covalently conjugated (linkage for the ITC sample not stated)). The assay is described as follows: ITC; in the presence of M1-2Ub (1:4). A general note: In ITC the heat of successive injections is recorded.

Protein sequences, listed by entry. Tags and fused reporters are not part of them. Lines headed by an entry give the natural chain unless they say otherwise; changes in a name come on top.
UniProt P68036: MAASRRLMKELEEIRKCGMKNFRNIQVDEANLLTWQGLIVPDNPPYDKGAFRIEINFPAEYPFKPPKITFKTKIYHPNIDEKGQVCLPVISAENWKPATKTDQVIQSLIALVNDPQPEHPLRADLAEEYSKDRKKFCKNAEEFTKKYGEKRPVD

What is called Kd is the equilibrium constant for the complex coming apart.

B1: HOIP (residues 697–1072) (domain or fragment)
chain: QECAVCGWALPHNRMQALTSCECTICPDCFRQHFTIALKEKHITDMVCPACGRPDLTDDTQLLSYFSTLDIQLRESLEPDAYALFHKKLTEGVLMRDPKFLWCAQCSFGFIYEREQLEATCPQCHQTFCVRCKRQWEEQHRGRSCEDFQNWKRMNDPEYQAQGLAMYLQENGIDCPKCKFSYALARGGCMHFHCTQCRHQFCSGCYNAFYAKNKCPEPNCRVKKSLHGHHPRDCLFYLRDWTALRLQKLLQDNNVMFNTEPPAGARAVPGGGCRVIEQKEVPNGLRDEACGKETPAGYAGLCQAHYKEYLVSLINAHSLDPATLYEVEELETATERYLHVRPQPLAGEDPPAYQARLLQKLTEEVPLGQSIPRRRK
Take B1: the Kd was 1430 nM.

Source of the values: article PMC12441119 (2025).
